Literature values in patent publication US20170285044A1, “METHODS FOR PREDICTING AND IMPROVING THE SURVIVAL OF GASTRIC CANCER PATIENTS” (Pierian Holdings, Inc., priority 2011, published 2017).

Tested on: HER2(+) gastric cancers
Conditions: trastuzumab plus standard chemotherapy; cited from earlier work

trastuzumab: HER2 targeting antibody
overall response rate: 47%
